Legend:
[1] = Peptide solubility (absorbance of supernatant); format: physicochemical; conditions: 5 mM in 5% DMSO diluted to 1.1 mM in HBSS; A280 of supernatant after 12,000g, before and after 75 min at 24 °C; relative to Tf‐D‐LP4 (Fig. S3C)
Experimental: (§1) Purified HK-I (13 µg/ml) was pre-incubated with the indicated concentrations of Tf-D-LP4 (●) or R-Tf-D-LP4 (○) and assayed for HK activity as described in Materials and Methods. Change in absorbance at 340 nm (NADH production) was spectrophotometrically measured following addition of 1 mM ATP, and 0.05 unit/ml glucose-6-phosphate dehydrogenase. C. Tf-D-LP4 and R-Tf-D-LP4 solubility. The peptides were dissolved to a final concentration of 5 mM in 5% DMSO and diluted to 1.1 mM in HBSS. Peptide absorbance in the supernatant was measured at 280 nm following centrifugation at 12,000g before and after 75 min incubation at 24 °C. D, E. Tf-D-LP4 and R-Tf-D-LP4 (0.5 mM in 5% DMSO) were incubated at -20 °C (○), 4 °C (●) or 24 °C (▲) and at the indicated time, aliquots (10 µM, final concentration) were assayed for cell death as described in Materials and Methods. Cell death was analyzed using PI and FACS analysis. In control cells, cell death was 3%, while peptide treatment led to levels of cell death over 90%.

[2] = tested on: A549‐, MDA‐MB‐231‐, and U‐87MG‐derived tumors; assay: qPCR of excised xenograft tumors; format: in vivo, mouse; conditions: A549, MDA‐MB‐231, U‐87MG tumors, vs control tumors, n = 3 (Fig. 6F)
Experimental: U‐87MG cells (3 × 10^6/mouse), A549 cells (5 × 10^6/mouse), or MDA‐MB‐231 cells (3 × 10^6/mouse) were inoculated subcutaneously (s.c.) into the hind leg flanks of athymic 8‐week‐old male nude mice (Envigo, Huntingdon, UK). Tumor size was measured using a digital caliper and volume was calculated, and when reached 50–100 mm^3 for each tumor type, mice were randomly divided into two groups (five mice per group). One group was intratumorally injected with HBSS (5.33 mM KCl, 0.44 mM KH2PO4, 138 mM NaCl, 4 mM NaHCO3, 0.3 mM Na2HPO4, and 5.6 mM glucose, pH 7.3) containing 0.05% DMSO and the second group with the peptide in HBSS containing 0.05% DMSO, with the R‐Tf‐D‐LP4 peptide at a final concentration of 40 or 60 μM. The xenografts were injected (two points, 20 μL per tumor) every two days. Beginning on the day of inoculation, mouse weight and tumor volume were monitored twice a week. […]
Total RNA was isolated from untreated and peptide‐treated tumors (three mice each) using an RNeasy Mini Kit (Qiagen, Hilden, Germany) according to the manufacturer's instructions. Total RNA quality was analyzed using the Agilent RNA 6000 Nano Kit. […] The copy numbers for each sample were calculated by the CT‐based calibrated standard curve method. The mean fold changes (±SE) of three replicates were calculated.

[3] = Peptide stability on storage, read out as cell death activity; format: physicochemical
Experimental: as §1

PANC1 = format: cell-based; conditions: 6 h
Experimental: (§2) Leukemia cells, U‐937, MEC‐1 cells (4 × 10^5 or 8 × 10^5 cells/sample, respectively), as well as other leukemia or suspension cell lines, were incubated in 200 μL serum‐free medium with various concentrations of the peptide for 90 min at 23–25 °C, collected by centrifugation (500 g, 5 min), washed with PBS, and analyzed for cell death. Adherent cells (6 × 10^5 mL^−1 at 70–80% confluence) were incubated with the peptide of interest in 500 μL serum‐free recommended culture medium for 3–6 h at 37 °C and 5% CO2. The cells were then trypsinized, centrifuged (1500 g, 5 min), washed with PBS, and analyzed for the desired activity. Following peptide treatment, cells were subjected to cell death analysis. Propidium iodide (PI) staining was performed by addition of PI (6.25 μg·mL^−1) to the cells and immediate analysis by the EC800 Flow cytometer Analyzer–Eclipse or the FACS caliber (Becton‐Dickinson, San Jose, CA, USA) and BD […] PRO software (BD Biosciences, San Jose, CA, USA).
(§3) Forty‐one cancerous and five noncancerous cell lines were used in this study to examine the cell‐killing activity of the VDAC1‐based peptides Antp‐LP4, Tf‐LP4, Tf‐D‐LP4, R‐Tf‐D‐LP4, N‐Ter‐Antp, and others (Figs 1, 2, 3 and Tables 1, 2, 3). For each line, cells were incubated with different peptide concentrations, and cell death was determined by PI staining and FACS analysis (Figs 1, 2, 3). In addition, for each cell line, the concentration of the peptide inducing 50% cell death (EC50) was determined (Tables 1, 2, 3).

A549 = format: cell-based; conditions: 6 h
Experimental: as §2, §3

With `CC[C@H](C)[C@H](NC(=O)[C@H](Cc1ccc(O)cc1)NC(=O)[C@@H]1CCCN1C(=O)[C@H](CCCNC(=N)N)NC(=O)[C@H](Cc1c[nH]cn1)NC(=O)[C@@H](CO)NC(=O)[C@@H](Cc1c[nH]c2ccccc12)NC(=O)[C@H](NC(=O)[C@@H](Cc1c[nH]c2ccccc12)NC(=O)[C@@H](CCC(=O)O)NC(=O)[C@@H](CCCCN)NC(=O)[C@@H](CCCCN)NC(=O)[C@@H](CC(C)C)NC(=O)[C@@H](CCC(=O)O)NC(=O)[C@H](NC(=O)[C@@H](C)NC(=O)[C@H](NC(=O)[C@@H](CC(N)=O)NC(=O)[C@@H](CC(C)C)NC(=O)[C@@H](C)NC(=O)[C@@H](Cc1c[nH]c2ccccc12)NC(=O)[C@H](NC(=O)[C@@H](C)NC(=O)CNC(=O)[C@@H](CC(N)=O)NC(=O)[C@@H](CO)NC(=O)[C@@H](CC(N)=O)NC(=O)[C@@H](CCCCN)NC(=O)[C@@H](Cc1c[nH]c2ccccc12)NC(=O)[C@H](NC(=O)[C@@H](Cc1c[nH]c2ccccc12)NC(=O)[C@H](N)CCCCN)[C@H](C)O)[C@H](C)O)C(C)C)[C@H](C)O)[C@H](C)O)C(=O)N[C@@H](C)C(=O)N[C@@H](Cc1c[nH]cn1)C(=O)O` [R‐Tf‐D‐LP4] the solubility [1] was “increased solubility”, the “decrease in Ki‐67 mRNA levels in peptide‐TTs” value [2] was “two‐ to threefold” and the “cell death on peptide treatment” value ([3]; 10 µM final concentration, PI and FACS, control cells 3%, cell line not printed (Fig. S3D,E)) was “over 90%”. For the same compound, the “stability with respect to temperature and incubation time” value ([3]; 0.5 mM in 5% DMSO at -20, 4 or 24 °C, aliquots (10 µM final) assayed for cell death, PI/FACS, relative to Tf‐D‐LP4 (Fig. S3D,E)) was “more stability with respect to temperature and incubation time”, the EC50 (PANC1) was 3.5 ± 0.1 µM and the EC50 (A549) was 2.7 ± 0.5 µM.

From PMC6026870, “Selective induction of cancer cell death by VDAC1‐based peptides and their potential use in cancer therapy” (Molecular Oncology, 2018)
